ChEMBL document CHEMBL2413008, “Carbonic anhydrase inhibitors: Synthesis and inhibition of the cytosolic mammalian carbonic anhydrase isoforms I, II and VII with benzene sulfonamides incorporating 4,5,6,7-tetrachlorophthalimide moiety” (Bioorg Med Chem, 2013)

Protein sequences, listed by entry. Tags and fused reporters are not part of them. Lines headed by an entry give the natural chain unless they say otherwise; changes in a name come on top.
UniProt P00915: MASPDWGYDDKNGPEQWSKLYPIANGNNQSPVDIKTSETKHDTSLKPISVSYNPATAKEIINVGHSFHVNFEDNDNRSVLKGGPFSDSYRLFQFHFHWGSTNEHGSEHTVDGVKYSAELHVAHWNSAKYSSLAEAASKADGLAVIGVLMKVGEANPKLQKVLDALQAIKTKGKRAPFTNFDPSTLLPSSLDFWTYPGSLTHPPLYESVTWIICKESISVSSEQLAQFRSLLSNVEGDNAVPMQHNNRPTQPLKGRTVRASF

Molecular target: Carbonic anhydrase 1 (Homo sapiens, UniProt P00915)

Compound NS(=O)(=O)c1ccccc1N1C(=O)c2c(Cl)c(Cl)c(Cl)c(Cl)c2C1=O has a Ki of over 10 µM.
